Test: Effect of pH on insulin solubility in DMSO (visual, A630)
Format: physicochemical
Description: Insulin was dissolved in H2O at 10 mg/mL with a 10 mM phosphate/citrate-1 mM EDTA buffer at either pH 2 or pH 7. These solutions were lyophilized to dryness ([…]) using a conservative cycle and reconstituted to various nominal concentrations in DMSO. Solubility was measured by visual inspection for clarity and turbidity via A630.

For insulin, the “solubility in DMSO” value (pH memory of 7, lowest concentration tested 10 mg/mL) was “poor solubility” and the “solubility in DMSO” value (pH of 2) was “at least 100 mg/mL”.

— patent US9018162B2, “Methods for rapidly treating severe hypoglycemia” (Xeris Pharmaceuticals, Inc., priority 2013, dated 2015)
